# Biological target: IDO1 (Homo sapiens, UniProt P14902)
# Chains of the proteins cited; added tags and fusions are not shown.
# UniProt P14902, whole entry: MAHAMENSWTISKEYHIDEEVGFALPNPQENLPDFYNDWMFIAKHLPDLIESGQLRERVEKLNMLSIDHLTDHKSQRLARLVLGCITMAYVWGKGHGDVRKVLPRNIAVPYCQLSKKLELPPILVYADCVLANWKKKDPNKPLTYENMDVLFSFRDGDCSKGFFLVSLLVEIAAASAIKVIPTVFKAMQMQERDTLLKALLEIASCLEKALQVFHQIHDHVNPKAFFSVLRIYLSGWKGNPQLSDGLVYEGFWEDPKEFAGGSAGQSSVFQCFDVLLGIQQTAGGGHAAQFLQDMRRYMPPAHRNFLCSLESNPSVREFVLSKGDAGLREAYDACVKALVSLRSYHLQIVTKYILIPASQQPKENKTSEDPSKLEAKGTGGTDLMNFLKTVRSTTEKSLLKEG
# Test: IDO1 Cellular Assay in HeLa Cells Stimulated with IFNγ
# Type: cell-based
# Conditions: HeLa cells stimulated with IFNγ 100 ng/mL, about 48 hours
row,Structure (SMILES),EC50
1,"Cc1ccccc1OC1CCN(C(=O)Cn2nc(C(=O)N3CC[C@H](O)[C@@H](F)C3)c3c2CCCC3)CC1 [Example 23, 2-(3-((3S,4S)-3-fluoro-4-hydroxypiperidine-1-carbonyl)-4,5,6,7-tetrahydro-1H-indazol-1-yl)-1-(4-(o-tolyloxy)piperidin-1-yl)ethanone]",1.84 nM
2,"C[C@@H]1CN(C(=O)c2nn(CC(=O)N3CCC(Oc4ccc(F)cc4Br)CC3)c3c2CCC3)C[C@H](C)O1 [Example 137, 1-[4-(2-bromo-4-fluorophenoxy)piperidin-1-yl]-2-{3-[(2R,6S)-2,6-dimethylmorpholine-4-carbonyl]-5,6-dihydrocyclopenta[c]pyrazol-1(4H)-yl}ethan-1-one]",8.33 nM
3,"Cc1ccccc1OC1CCN(C(=O)Cn2nc(C(=O)N3CC[C@H](O)[C@@H](F)C3)c3c2CCC3)CC1 [Example 34, 2-(3-((3S,4S)-3-fluoro-4-hydroxypiperidine-1-carbonyl)-5,6-dihydrocyclopenta[c]pyrazol-1(4H)-yl)-1-(4-(o-tolyloxy)piperidin-1-yl)ethanone]",3.95 nM
4,"Cc1cc(F)ccc1OC1CCN(C(=O)Cn2nc(C(=O)N3CCO[C@H](CO)C3)c3c2CCCC3)CC1 [Example 81, 1-[4-(4-fluoro-2-methyl-phenoxy)-1-piperidyl]-2-[3-[(2S)-2-(hydroxymethyl)morpholine-4-carbonyl]-4,5,6,7-tetrahydroindazol-1-yl]ethanone]",8.26 nM
5,"CC(=O)NC1CCN(C(=O)c2nn(CC(=O)N3CCC(Oc4ncccc4C)CC3)c3c2CCCC3)CC1 [Example 180, N-(1-(1-(2-(4-((3-Methylpyridin-2-yl)oxy)piperidin-1-yl)-2-oxoethyl)-4,5,6,7-tetrahydro-1H-indazole-3-carbonyl)piperidin-4-yl)acetamide]",9.5 nM
6,"Cc1ccc(OC2CCN(C(=O)Cn3nc(C(=O)N4C[C@@H](C)O[C@@H](C)C4)c4c3CCC4)CC2)cc1Cl [Example 143, 1-[4-(3-chloro-4-methylphenoxy)piperidin-1-yl]-2-{3-[(2R,6S)-2,6-dimethylmorpholine-4-carbonyl]-5,6-dihydrocyclopenta[c]pyrazol-1(4H)-yl}ethan-1-one]",15.2 nM
7,"Cc1c(Br)cccc1OC1CCN(C(=O)Cn2nc(C(=O)N3C[C@@H](C)O[C@@H](C)C3)c3c2CCC3)CC1 [Example 142, 1-[4-(3-bromo-2-methylphenoxy)piperidin-1-yl]-2-{3-[(2R,6S)-2,6-dimethylmorpholine-4-carbonyl]-5,6-dihydrocyclopenta[c]pyrazol-1(4H)-yl}ethan-1-one]",13.9 nM
8,"Cc1cc(Cl)ccc1OC1CCN(C(=O)Cn2nc(C(=O)N3C[C@@H](C)O[C@@H](C)C3)c3c2CCC3)CC1 [Example 145, 1-[4-(4-chloro-2-methylphenoxy)piperidin-1-yl]-2-{3-[(2R,6S)-2,6-dimethylmorpholine-4-carbonyl]-5,6-dihydrocyclopenta[c]pyrazol-1(4H)-yl}ethan-1-one]",16.4 nM
9,"C[C@@H]1CN(C(=O)c2nn(CC(=O)N3CCC(Oc4c(F)cccc4F)CC3)c3c2CCC3)C[C@H](C)O1 [Example 153, 1-[4-(2,6-difluorophenoxy)piperidin-1-yl]-2-{3-[(2R,6S)-2,6-dimethylmorpholine-4-carbonyl]-5,6-dihydrocyclopenta[c]pyrazol-1(4H)-yl}ethan-1-one]",37.9 nM
10,"Cc1ccccc1OC1CCN(C(=O)Cn2nc(C(=O)N3CCC(F)(CO)CC3)c3c2CCC3)CC1 [Example 30, 2-(3-(4-fluoro-4-(hydroxymethyl)piperidine-1-carbonyl)-5,6-dihydrocyclopenta[c]pyrazol-1(4H)-yl)-1-(4-(o-tolyloxy)piperidin-1-yl)ethanone]",2.81 nM
11,"O=C(Cn1nc(C(=O)N2CC[C@H](O)[C@@H](F)C2)c2c1CCC2)N1CCC(C(F)(F)c2ccccc2)CC1 [Example 174, 1-(4-(Difluoro(phenyl)methyl)piperidin-1-yl)-2-(3-((3S,4S)-3-fluoro-4-hydroxypiperidine-1-carbonyl)-5,6-dihydrocyclopenta[c]pyrazol-1(4H)-yl)ethanone]",34.8 nM
12,"Cc1cc(F)ccc1OC1CCN(C(=O)Cn2nc(C(=O)N3CCN(C(=O)CO)CC3)c3c2CCCC3)CC1 [Example 79, 1-[4-(4-fluoro-2-methyl-phenoxy)-1-piperidyl]-2-[3-[4-(2-hydroxyacetyl)piperazine-1-carbonyl]-4,5,6,7-tetrahydroindazol-1-yl]ethanone]",7.16 nM
13,"O=C(c1nn(CC(=O)N2CCC(Oc3ncccc3Cl)CC23CC3)c2c1CCCC2)N1CCC(OCCO)CC1 (single isomer, unassigned) [Example 62, (S or R)-1-(7-((3-chloropyridin-2-yl)oxy)-4-azaspiro[2.5]octan-4-yl)-2-(3-(4-(2-hydroxyethoxy)piperidine-1-carbonyl)-4,5,6,7-tetrahydro-1H-indazol-1-yl)ethanone]",112 nM
14,"Cc1ccccc1OC1CCN(C(=O)Cn2nc(C(=O)N3CCN(C(=O)CO)CC3)c3c2CCCC3)CC1 [Example 38, 2-hydroxy-1-(4-(1-(2-oxo-2-(4-(o-tolyloxy)piperidin-1-yl)ethyl)-4,5,6,7-tetrahydro-1H-indazole-3-carbonyl)piperazin-1-yl)ethanone]",6.3 nM
15,"Cc1ccc(OC2CCN(C(=O)Cn3nc(C(=O)N4C[C@@H](C)O[C@@H](C)C4)c4c3CCC4)CC2)cc1 [Example 95, 2-{3-[(2R,6S)-2,6-dimethylmorpholine-4-carbonyl]-5,6-dihydrocyclopenta[c]pyrazol-1(4H)-yl}-1-[4-(4-methylphenoxy)piperidin-1-yl]ethan-1-one]",4.48 nM
16,"C[C@@H]1CN(C(=O)c2nn(CC(=O)N3CCC(Oc4c(F)cc(F)cc4F)CC3)c3c2CCC3)C[C@H](C)O1 [Example 157, 2-{3-[(2R,6S)-2,6-dimethylmorpholine-4-carbonyl]-5,6-dihydrocyclopenta[c]pyrazol-1(4H)-yl}-1-[4-(2,4,6-trifluorophenoxy)piperidin-1-yl]ethan-1-one]",79.4 nM
17,"Cc1ccc(F)c(OC2CCN(C(=O)Cn3nc(C(=O)N4C[C@@H](C)O[C@@H](C)C4)c4c3CCC4)CC2)c1 [Example 150, 2-{3-[(2R,6S)-2,6-dimethylmorpholine-4-carbonyl]-5,6-dihydrocyclopenta[c]pyrazol-1(4H)-yl}-1-[4-(2-fluoro-5-methylphenoxy)piperidin-1-yl]ethan-1-one]",28.9 nM
18,"C[C@@H]1C[C@H](Oc2ccccc2Cl)CCN1C(=O)Cn1nc(C(=O)N2CCN(C(=O)CO)CC2)c2c1C[C@H]1C[C@@H]21 [Example 4, 1-((2R,4R)-4-(2-chlorophenoxy)-2-methylpiperidin-1-yl)-2-((3bR,4aR)-3-(4-(2-hydroxyacetyl)piperazine-1-carbonyl)-3b,4,4a,5-tetrahydro-1H-cyclopropa[3,4]cyclopenta[1,2-c]pyrazol-1-yl)ethanone]",3.84 nM
19,"O=C(Cn1nc(C(=O)N2CC[C@H](O)[C@H](F)C2)c2c1CCCC2)N1CCC(Oc2ccccc2Cl)CC1 [Example 7, 1-(4-(2-chlorophenoxy)piperidin-1-yl)-2-(3-((3R,4S)-3-fluoro-4-hydroxypiperidine-1-carbonyl)-4,5,6,7-tetrahydro-1H-indazol-1-yl)ethanone]",5.2 nM
20,"COc1ccc(CC2CCN(C(=O)Cn3nc(C(=O)N4C[C@@H](C)O[C@@H](C)C4)c4c3CCC4)CC2)cc1F [Example 123, 2-{3-[(2R,6S)-2,6-dimethylmorpholine-4-carbonyl]-5,6-dihydrocyclopenta[c]pyrazol-1(4H)-yl}-1-{4-[(3-fluoro-4-methoxyphenyl)methyl]piperidin-1-yl}ethan-1-one]",324 nM
21,"C[C@@H]1C[C@H](Oc2ncccc2C(F)(F)F)CCN1C(=O)Cn1nc(C(=O)N2CCN(C(=O)CO)CC2)c2c1C[C@H]1C[C@@H]21 [Example 12, 2-hydroxy-1-(4-((3bR,4aR)-1-(2-((2R,4R)-2-methyl-4-((3-(trifluoromethyl)pyridin-2-yl)oxy)piperidin-1-yl)-2-oxoethyl)-3b,4,4a,5-tetrahydro-1H-cyclopropa[3,4]cyclopenta[1,2-c]pyrazole-3-carbonyl)piperazin-1-yl)ethanone]",18.5 nM
22,"C[C@@H]1CN(C(=O)c2nn(CC(=O)N3CCC(Oc4ccc5ncccc5c4)CC3)c3c2CCC3)C[C@H](C)O1 [Example 162, 2-{3-[(2R,6S)-2,6-dimethylmorpholine-4-carbonyl]-5,6-dihydrocyclopenta[c]pyrazol-1(4H)-yl}-1-{4-[(quinolin-6-yl)oxy]piperidin-1-yl}ethan-1-one]",270 nM
23,"Cc1cc(F)ccc1OC1CCN(C(=O)Cn2nc(C(=O)N3CCN(C(=O)CO)CC3)c3c2CCCCC3)CC1 [Example 84, 1-[4-(4-fluoro-2-methyl-phenoxy)-1-piperidyl]-2-[3-[4-(2-hydroxyacetyl)piperazine-1-carbonyl]-5,6,7,8-tetrahydro-4H-cyclohepta[c]pyrazol-1-yl]ethanone]",30.4 nM
24,"CC(=O)NC1CCN(C(=O)c2nn(CC(=O)N3CCC(Oc4ccccc4C)CC3)c3c2[C@@H]2C[C@@H]2C3)CC1 [Example 29, N-(1-((3bR,4aR)-1-(2-oxo-2-(4-(o-tolyloxy)piperidin-1-yl)ethyl)-3b,4,4a,5-tetrahydro-1H-cyclopropa[3,4]cyclopenta[1,2-c]pyrazole-3-carbonyl)piperidin-4-yl)acetamide]",2.66 nM
25,"Cc1ccccc1OC1CCN(C(=O)Cn2nc(C(=O)N3CCN(C(=O)CO)CC3)c3c2CCC3)CC1 [Example 43, 2-hydroxy-1-(4-(1-(2-oxo-2-(4-(o-tolyloxy)piperidin-1-yl)ethyl)-1,4,5,6-tetrahydrocyclopenta[c]pyrazole-3-carbonyl)piperazin-1-yl)ethanone]",14.4 nM
26,"Cc1c(F)cccc1OC1CCN(C(=O)Cn2nc(C(=O)N3C[C@@H](C)O[C@@H](C)C3)c3c2CCC3)CC1 [Example 128, 2-{3-[(2R,6S)-2,6-dimethylmorpholine-4-carbonyl]-5,6-dihydrocyclopenta[c]pyrazol-1(4H)-yl}-1-[4-(3-fluoro-2-methylphenoxy)piperidin-1-yl]ethan-1-one]",1.48 nM
